The values below are quoted from earlier work in patent US20080119530A1, “Method for treatment and prevention of ultraviolet light induced skin pathologies” (priority 2006, published 2008).

The conditions of data set [1]: current Erbb2-targeted therapies; cited from earlier work.
Another data set relates to p27. As to conditions: cited from earlier work.

“trastuzumab: current Erbb2-targeted therapy; Erbb2 antagonist”: the skin toxicity entry in data set [1] is “Low incidence”. Moreover, the p27 expression entry with p27 is given as “increase”.
